The text below walks through data of ChEMBL document CHEMBL1124922 (J Med Chem, 1990).

Structures are written as SMILES.

Series [1] is described as follows: Half-life in culture medium was determined at 37 degrees Celsius in alpha MEM with 10% fetal calf-serum (FCS). The conditions noted are these: cattle.
Series [2] can be described thus: Evaluated for inhibitory concentration against UV-4 cells under aerobic conditions with a compound exposure of 1 h.
A short description of series [3]: Evaluated for inhibitory concentration against UV-4 cells under aerobic conditions with a compound exposure of 18 h.
A short description of series [4]: Evaluated for growth inhibition of AA8 cells under aerobic conditions. As to conditions: cho-aa8.
Series [5] can be described thus: Evaluated for growth inhibition of AA8 cells under aerobic or hypoxic conditions. As to conditions: cho-aa8.
Series [6] can be described thus: Evaluated for cytotoxicity under aerobic conditions against AA8 cells using microassay. The format is cell-based, Cricetulus griseus. As to conditions: cho-aa8.
A short description of series [7]: Evaluated for cytotoxicity under aerobic conditions against UV4 cells using microassay.
Series [8] in a line: Clonogenicity is evaluated for (CF10) the concentration x time to reduce the surviving fraction to 10% of controls in the clonogenic assay in UV-4 cells under aerobic conditions.
Series [9] in a line: Evaluated for (CF10) the concentration x time to reduce the surviving fraction to 10% of controls in the stirred suspension assay (SSC) in UV-4 cells under aerobic conditions.
A short description of series [10]: Ratio = (aerobic IC50 / hypoxic IC50) determined against UV-4 cells with an 18 hr exposure.
Series [11] in a line: Evaluated for growth inhibition of UV-4 cells under aerobic or hypoxic conditions (air/N2). As to conditions: uv4.

As to `COc1cccc(N(CCCl)CCCl)c1`, the T1/2 in series [1] came to 6.3 h. The IC50 in [2] turned out to be 2700 nM; in series [3], 570 nM.
`CN(C)C(=O)c1cccc(N(CCCl)CCCl)c1` displayed a T1/2 in series [1] of 5.9 h. The half-maximal inhibitory concentration (IC50) in series [2] stood at 7600 nM; in [3], 1500 nM.
On to `Nc1cccc(N(CCCl)CCCl)c1`, for which the IC50 in series [4] is 2900 nM; in series [5] it was 900 nM; in series [2] it was 380 nM; in [3], 160 nM.
Take `BrCCN(CCBr)c1ccccc1`: the half-inhibitory concentration (IC50) in [6] amounted to 3400 nM; in series [7], 140 nM.
With `O=Nc1ccc(N(CCCl)CCCl)cc1`, the half-inhibitory concentration (IC50) in series [4] was 2000 nM; in series [5] it was 610 nM; in series [2] it was under 100 nM; in series [3], 40 nM. In addition, the T1/2 in [1] is 13.7 h. The CT10 in series [8] was 1 µM; in series [9], under 0.1 µM/h. Further, in series [10], the Ratio amounted to 0.98.
In series [1], `CS(=O)(=O)c1ccc(N(CCCl)CCCl)cc1` came in with a T1/2 of over 100 h. Also, the CT10 in series [9] was found to be 1120 µM/h. In series [3], it took 42000 nM to reach half-maximal inhibition (IC50).
On to `Nc1ccc(N(CCCl)CCCl)cc1`, for which the figures for the IC50 in series [2] and in series [3] were 71 nM and 83 nM, respectively.
`CSc1ccc(N(CCCl)CCCl)cc1` registered a T1/2 in series [1] of 7.2 h. Moreover, the CT10 in series [9] came out at 3.1 µM/h. For the same molecule, the IC50 in [2] is 1620 nM; in [3] it was 40 nM.
As to `ClCCN(CCCl)c1ccccc1`, the IC50 in [6] was determined as 10500 nM; in [7] it was 330 nM; in series [2], 1200 nM; in [3], 330 nM. For the same molecule, in [1], the T1/2 was 2.5 h.
With `O=[N+]([O-])c1ccc(N(CCCl)CCCl)cc1`, the 50% inhibitory concentration (IC50) in series [6] was over 100000 nM; in series [4], over 100000 nM; in series [5], 1000 nM; in [7], 22000 nM; in series [2] it was 15800 nM; in series [3], 21500 nM. In [1], the T1/2 was over 100 h. For the same molecule, the CT10 turned out to be 760 µM in series [8] and 750 µM/h in series [9].
The molecule `CN(C)C(=O)c1ccc(N(CCCl)CCCl)cc1` displayed a T1/2 in series [1] of 12.6 h. Besides, the CT10 in [9] is 1 µM/h. In addition, the IC50 in [2] was determined as 14600 nM; in series [3], 1580 nM.
Consider `Nc1ccccc1N(CCCl)CCCl`, for which the figures for the IC50 in [6] and in series [11] were 13500 nM and 600 nM, respectively.
In the case of `O=[N+]([O-])c1ccccc1N(CCCl)CCCl`, the IC50 in [6] was 21000 nM; in [11], 1000 nM.
`Cl.Nc1ccc(N(CCCl)CCCl)cc1` showed a T1/2 in series [1] of 0.134 h.
In series [7], `O=[N+]([O-])c1ccc(N(CCBr)CCBr)cc1` showed an IC50 of 2800 nM.
In the case of `O=[N+]([O-])c1cccc(N(CCCl)CCCl)c1`, the IC50 is 96000 nM in [2] and 13600 nM in series [3].
In turn, `Cl.Nc1cccc(N(CCCl)CCCl)c1` registered a T1/2 in [1] of 1.6 h. Besides, the CT10 in series [8] stood at 0.8 µM; in [9], 0.8 µM/h. Further, in series [10], the Ratio worked out at 0.98.
As for `Cc1ccc(N(CCCl)CCCl)cc1`, in series [1], the T1/2 is 1.5 h. In series [9], the CT10 was 2.9 µM/h. Further, the 50% inhibitory concentration (IC50) in [2] was determined as 400 nM; in series [3], 210 nM.
Take `CS(=O)(=O)c1cccc(N(CCCl)CCCl)c1`: the T1/2 in series [1] stood at 56.6 h. Also, the concentration for half-maximal inhibition (IC50) in series [2] amounted to 76000 nM; in series [3], 6800 nM.
On to `COc1ccc(N(CCCl)CCCl)cc1`, for which the T1/2 in [1] was 0.4 h. The molecule also came in with a CT10 in series [9] of 0.23 µM/h. Besides, the 50% inhibitory concentration (IC50) was found to be 450 nM in [2] and 410 nM in [3].
On to `ICCN(CCI)c1ccccc1`, for which the IC50 turned out to be 540 nM in series [6] and 20 nM in series [7].
Consider `O=[N+]([O-])c1ccc(N(CCI)CCI)cc1`, for which, in [7], the half-inhibitory concentration (IC50) came to 5300 nM.

By IC50 is commonly meant the concentration needed to halve the response being measured. Lower therefore signals higher potency.
